Holding throughout (assay type): functional, cell-based
For test [1], the system named is MIA PaCa-2. Description: Growth inhibition of human MIAPaCa2 cells after 72 hrs by MTS assay. The settings on record: MIA PaCa-2, 72 h.
In test [2] the test system is HuP-T3. Description: Growth inhibition of human HUPT3 cells after 72 hrs by MTS assay. The conditions noted are these: HuP-T3, 72 h. For orientation: Formazan colour is commonly taken as a measure of viable cells.
Test [3] relates to BXPC-3. Description: Growth inhibition of human BxPC3 cells after 72 hrs by MTS assay. The settings on record: BXPC-3, 72 h.

Regarding `Cn1cc(C2=C(c3coc4ccc(F)cc34)C(=O)NC2=O)c2cc(I)ccc21`, the results for the IC50 in test [1], in test [2] and in test [3] were 28 µM, 42 µM and 42 µM, respectively.
For the molecule `Cn1cc(C2=C(c3coc4ccccc34)C(=O)NC2=O)c2cc(I)ccc21`, in test [3], the IC50 (as a rule, the concentration that inhibits the measured activity by half) was determined as 33 µM.

Source of the values: ChEMBL document CHEMBL1153825, “From a natural product lead to the identification of potent and selective benzofuran-3-yl-(indol-3-yl)maleimides as glycogen synthase kinase 3beta inhibitors that suppress proliferation and survival of pancreatic cancer cells” (J Med Chem, 2009).
